Results on 14 molecules are retold here after patent US20240360179A1, “STAPLED PEPTIDES AND METHODS THEREOF” (FOG PHARMACEUTICALS, INC., priority 2021, published 2024).

Chains of the proteins cited; added tags and fusions are not shown.
UniProt P35222, whole entry: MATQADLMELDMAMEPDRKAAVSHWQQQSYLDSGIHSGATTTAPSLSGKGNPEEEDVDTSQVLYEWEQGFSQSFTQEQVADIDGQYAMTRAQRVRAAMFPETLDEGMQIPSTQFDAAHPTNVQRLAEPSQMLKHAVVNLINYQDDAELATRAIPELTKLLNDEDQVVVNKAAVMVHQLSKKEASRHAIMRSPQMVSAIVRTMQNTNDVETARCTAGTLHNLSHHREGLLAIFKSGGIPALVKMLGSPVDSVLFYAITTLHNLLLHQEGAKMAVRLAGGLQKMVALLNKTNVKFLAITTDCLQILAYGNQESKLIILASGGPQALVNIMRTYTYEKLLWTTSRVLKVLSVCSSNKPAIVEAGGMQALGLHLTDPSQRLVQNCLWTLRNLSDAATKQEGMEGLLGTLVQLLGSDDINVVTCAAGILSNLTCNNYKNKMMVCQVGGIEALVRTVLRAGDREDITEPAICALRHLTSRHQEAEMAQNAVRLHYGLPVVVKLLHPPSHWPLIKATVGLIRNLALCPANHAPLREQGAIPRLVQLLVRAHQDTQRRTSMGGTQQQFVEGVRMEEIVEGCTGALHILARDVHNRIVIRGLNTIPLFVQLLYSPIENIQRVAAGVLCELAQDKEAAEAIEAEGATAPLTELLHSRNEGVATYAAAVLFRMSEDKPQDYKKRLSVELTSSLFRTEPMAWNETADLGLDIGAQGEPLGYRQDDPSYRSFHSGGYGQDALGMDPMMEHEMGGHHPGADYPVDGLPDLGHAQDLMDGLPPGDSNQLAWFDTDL

Bounds are passed on as bounds.

The target of assay [1] is beta-catenin/TCF4 interaction (Homo sapiens, UniProt P35222). Kind of assay: cell-based. Set-up: host or cells: HEK293. To be noted: NanoBRET Abs IC50 (uM).
Assay [2] concerns the target T1, full-length B-Catenin (Uniprot ID P35222) (Homo sapiens, UniProt P35222).
T1 construct: 10 nM full-length B-Catenin (Uniprot ID P35222)
The assay can be described thus: biochemical. The assay is classed as binding. To be noted: beta-Catenin FP IC50 (nM), competition fluorescence polarization.

Turning to `CC(=O)N1CCC[C@]12CC=CCCCC1(CCCC=CCCCOC(=O)N3CC[C@@]4(C3)NC(=O)[C@H](CCCCNC(=O)CC[C@@H](C(=O)N[C@@H](C)C(N)=O)NC(=O)[C@H](Cc3csc5ccccc35)NC(=O)[C@H](Cc3ccsc3)NC4=O)NC(=O)[C@H](Cc3ccccc3)NC(=O)[C@H](C)NC(=O)C(C)(C)NC(=O)[C@H](CCC(=O)O)NC(=O)[C@H](CCCC(=O)O)NC1=O)NC(=O)[C@H](CC(C)(C)C)NC(=O)[C@H](CCCC(=O)O)NC2=O` (relative stereo) [I-556, Ac-PL3-Aad-Npg-B5-Aad-Glu-Aib-Ala-Phe-Lys*3-PyrS2-3Thi-BztA-GlnR*3-Ala-NH2], the half-inhibitory concentration (IC50) is > 10 µM in assay [1] (absolute IC50) and > 1000 nM in assay [2].

Turning to `C[C@H](NC(=O)[C@@H]1CCC(=O)NCCCC[C@@H]2NC(=O)[C@H](Cc3ccccc3)NC(=O)[C@H](C)NC(=O)C(C)(C)NC(=O)[C@H](Cc3cccc(C(=O)O)c3)NC(=O)[C@H](CC(=O)O)NC(=O)[C@](C)(NC(=O)[C@@H]3CN(Cc4ccccc4)CCCCCC(=O)N4CCC[C@@]4(C)C(=O)N[C@@H](CC(=O)O)C(=O)N3)CCCCCCCCOC(=O)N3CC[C@@](C3)(NC2=O)C(=O)N[C@@H](Cc2ccsc2)C(=O)N[C@@H](Cc2csc3ccccc23)C(=O)N1)C(N)=O` (relative stereo) [I-562, 4pentenyl-MePro-Asp-[Bn][Allyl]Dap-R5-Asp-3COOHF-Aib-Ala-Phe-Lys*3-PyrS2-3Thi-BztA-GlnR*3-Ala-NH2], the half-inhibitory concentration (IC50) in assay [1] (absolute IC50) is > 10 µM; in assay [2] it was 50 to 200 nM.

As to `C[C@H](NC(=O)[C@@H]1CCC(=O)NCCCC[C@@H]2NC(=O)[C@H](Cc3ccccc3)NC(=O)[C@H](C)NC(=O)C(C)(C)NC(=O)[C@H](Cc3cccc(C(=O)O)c3)NC(=O)[C@H](CC(=O)O)NC(=O)[C@](C)(NC(=O)[C@@H]3CN(C(=O)c4ccccc4)CCCCCC(=O)N4CCC[C@@]4(C)C(=O)N[C@@H](CC(=O)O)C(=O)N3)CCCCCCCCOC(=O)N3CC[C@@](C3)(NC2=O)C(=O)N[C@@H](Cc2ccsc2)C(=O)N[C@@H](Cc2csc3ccccc23)C(=O)N1)C(N)=O` (relative stereo) [I-563, 4pentenyl-MePro-Asp-[Phc][Allyl]Dap-R5-Asp-3COOHF-Aib-Ala-Phe-Lys*3-PyrS2-3Thi-BztA-GlnR*3-Ala-NH2], the values for the half-inhibitory concentration (IC50) in assay [1] (absolute IC50) and in assay [2] were > 10 µM and < 50 nM, respectively.

`C[C@H](NC(=O)[C@@H]1CCC(=O)NCCCC[C@@H]2NC(=O)[C@H](Cc3ccccc3)NC(=O)[C@H](C)NC(=O)C(C)(C)NC(=O)[C@H](Cc3cccc(C(=O)O)c3)NC(=O)[C@H](CC(=O)O)NC(=O)[C@](C)(NC(=O)[C@@H]3CN(C(=O)C(C)(C)C)CCCCCCC(=O)N4CCC[C@@]4(C)C(=O)N[C@@H](CC(=O)O)C(=O)N3)CCCCCCCCOC(=O)N3CC[C@@](C3)(NC2=O)C(=O)N[C@@H](Cc2ccsc2)C(=O)N[C@@H](Cc2csc3ccccc23)C(=O)N1)C(N)=O` (relative stereo) [I-564, 5hexenyl-MePro-Asp-[Piv][Allyl]Dap-R5-Asp-3COOHF-Aib-Ala-Phe-Lys*3-PyrS2-3Thi-BztA-GlnR*3-Ala-NH2]: the 50% inhibitory concentration (IC50) in assay [1] (absolute IC50) was > 10 µM; in assay [2] it was 50 to 200 nM.

For the molecule `C[C@H](NC(=O)[C@@H]1CCC(=O)NCCCC[C@@H]2NC(=O)[C@H](Cc3ccccc3)NC(=O)[C@H](C)NC(=O)C(C)(C)NC(=O)[C@H](Cc3cccc(C(=O)O)c3)NC(=O)[C@H](CC(=O)O)NC(=O)[C@](C)(NC(=O)[C@@H]3CN(C(=O)C4CCCCC4)CCCCCCC(=O)N4CCC[C@@]4(C)C(=O)N[C@@H](CC(=O)O)C(=O)N3)CCCCCCCCOC(=O)N3CC[C@@](C3)(NC2=O)C(=O)N[C@@H](Cc2ccsc2)C(=O)N[C@@H](Cc2csc3ccccc23)C(=O)N1)C(N)=O` (relative stereo) [I-565, 5hexenyl-MePro-Asp-[CyCO][Allyl]Dap-R5-Asp-3COOHF-Aib-Ala-Phe-Lys*3-PyrS2-3Thi-BztA-GlnR*3-Ala-NH2], the IC50 is > 10 µM in assay [1] (absolute IC50) and < 50 nM in assay [2].

Consider `CC(=O)N1CCC[C@]12CC=CCCCC1(CCCC=CCCCOC(=O)N3CC[C@@]4(C3)NC(=O)[C@@H](CCCCNC(=O)CC[C@@H](C(N)=O)NC(=O)[C@H](Cc3csc5ccccc35)NC(=O)[C@H](Cc3ccsc3)NC4=O)NC(=O)[C@H](Cc3ccccc3)NC(=O)[C@H](C)NC(=O)[C@H](C)NC(=O)[C@H](CC(=O)O)NC(=O)[C@H](CC(=O)O)NC1=O)NC(=O)[C@H](CC(C)C)NC(=O)[C@H](CC(=O)O)NC2=O` (single isomer, unassigned) [I-1, Ac-PL3-Asp-Leu-B5-Asp-Asp-Ala-Ala-Phe-dLys*3-PyrS2-3Thi-BztA-GlnR*3-NH2], for which the concentration for half-maximal inhibition (IC50) in assay [1] is > 10 µM; in assay [2] it was < 50 nM.

With `CC(=O)N1CCC[C@]12CC=CCCCC1(CCCC=CCCCOC(=O)N3CC[C@@]4(C3)NC(=O)[C@H](CCCCNC(=O)CC[C@@H](C(N)=O)NC(=O)[C@H](Cc3csc5ccccc35)NC(=O)[C@H](Cc3ccsc3)NC4=O)NC(=O)[C@H](Cc3ccccc3)NC(=O)[C@H](C)NC(=O)[C@H](C)NC(=O)[C@H](CC(=O)O)NC(=O)[C@H](CC(=O)O)NC1=O)NC(=O)[C@H](CC(C)C)NC(=O)[C@H](CC(=O)O)NC2=O` (single isomer, unassigned) [I-3, Ac-PL3-Asp-Leu-B5-Asp-Asp-Ala-Ala-Phe-Lys*3-PyrS2-3Thi-BztA-GlnR*3-NH2], the values for the half-maximal inhibitory concentration (IC50) in assay [1] and in assay [2] were 3 to 10 µM and < 50 nM, respectively.

In the case of `CC(=O)N1CCC[C@]12CC=CCCCC1(CCCC=CCCCOC(=O)N3CC[C@@]4(C3)NC(=O)[C@@H](CCCCNC(=O)CC[C@@H](C(N)=O)NC(=O)[C@H](Cc3csc5ccccc35)NC(=O)[C@H](Cc3ccsc3)NC4=O)NC(=O)[C@H](Cc3ccccc3)NC(=O)[C@H](C)NC(=O)[C@H](C)NC(=O)[C@H](Cc3cccc(C(=O)O)c3)NC(=O)[C@H](CC(=O)O)NC1=O)NC(=O)[C@H](CC(C)C)NC(=O)[C@H](CC(=O)O)NC2=O` (single isomer, unassigned) [I-9, Ac-PL3-Asp-Leu-B5-Asp-3COOHF-Ala-Ala-Phe-dLys*3-PyrS2-3Thi-BztA-GlnR*3-NH2], the half-inhibitory concentration (IC50) is 3 to 10 µM in assay [1] and < 50 nM in assay [2].

Take `CC(=O)N1CCC[C@]12CC=CCCCC1(CCCC=CCCCOC(=O)N3CC[C@@]4(C3)NC(=O)[C@H](CCCCNC(=O)CC[C@@H](C(N)=O)NC(=O)[C@H](Cc3csc5ccccc35)NC(=O)[C@H](Cc3ccsc3)NC4=O)NC(=O)[C@H](Cc3ccccc3)NC(=O)[C@H](C)NC(=O)[C@H](C)NC(=O)[C@H](Cc3cccc(C(=O)O)c3)NC(=O)[C@H](CC(=O)O)NC1=O)NC(=O)[C@H](CC(C)C)NC(=O)[C@H](CC(=O)O)NC2=O` (single isomer, unassigned) [I-11, Ac-PL3-Asp-Leu-B5-Asp-3COOHF-Ala-Ala-Phe-Lys*3-PyrS2-3Thi-BztA-GlnR*3-NH2]: the half-maximal inhibitory concentration (IC50) in assay [1] was 1.5 to 3 µM; in assay [2], < 50 nM.

Regarding `CC(=O)N1CCC[C@]12CC=CCCCC1(CCCC=CCCCOC(=O)N3CC[C@@]4(C3)NC(=O)[C@@H](CCC(=O)NCCCC[C@@H](C(N)=O)NC(=O)[C@H](Cc3csc5ccccc35)NC(=O)[C@H](Cc3ccsc3)NC4=O)NC(=O)[C@H](Cc3ccccc3)NC(=O)[C@H](C)NC(=O)[C@H](C)NC(=O)[C@H](Cc3cccc(C(=O)O)c3)NC(=O)[C@H](CC(=O)O)NC1=O)NC(=O)[C@H](CC(C)C)NC(=O)[C@H](CC(=O)O)NC2=O` (single isomer, unassigned) [I-13, Ac-PL3-Asp-Leu-B5-Asp-3COOHF-Ala-Ala-Phe-DGlnR*3-PyrS2-3Thi-BztA-Lys*3-NH2], the half-maximal inhibitory concentration (IC50) was 3 to 10 µM in assay [1] and < 50 nM in assay [2].

Consider `CC(=O)N1CCC[C@]12CC=CCCCC1(CCCC=CCCCOC(=O)N3CC[C@@]4(C3)NC(=O)[C@H](CCC(=O)NCCCC[C@@H](C(N)=O)NC(=O)[C@H](Cc3csc5ccccc35)NC(=O)[C@H](Cc3ccsc3)NC4=O)NC(=O)[C@H](Cc3ccccc3)NC(=O)[C@H](C)NC(=O)[C@H](C)NC(=O)[C@H](Cc3cccc(C(=O)O)c3)NC(=O)[C@H](CC(=O)O)NC1=O)NC(=O)[C@H](CC(C)C)NC(=O)[C@H](CC(=O)O)NC2=O` (single isomer, unassigned) [I-15, Ac-PL3-Asp-Leu-B5-Asp-3COOHF-Ala-Ala-Phe-GlnR*3-PyrS2-3Thi-BztA-Lys*3-NH2], for which the IC50 in assay [1] is 1.5 to 3 µM; in assay [2], < 50 nM.

In the case of `CC(=O)N1CCC[C@]12CC=CCCCC1(CCCC=CCCCOC(=O)N3CC[C@@]4(C3)NC(=O)[C@H](CCCCn3cc(nn3)C[C@@H](C(N)=O)NC(=O)[C@H](Cc3csc5ccccc35)NC(=O)[C@H](Cc3ccsc3)NC4=O)NC(=O)[C@H](Cc3ccccc3)NC(=O)[C@H](C)NC(=O)[C@H](C)NC(=O)[C@H](CC(=O)O)NC(=O)[C@H](CC(=O)O)NC1=O)NC(=O)[C@H](CC(C)(C)C)NC(=O)[C@H](CC(=O)O)NC2=O` (single isomer, unassigned) [I-17, Ac-PL3-Asp-Npg-B5-Asp-Asp-Ala-Ala-Phe-TriAzLys*3-PyrS2-3Thi-BztA-sAla*3-NH2], the IC50 in assay [1] is > 10 µM; in assay [2], < 50 nM.

As for `CC(=O)N1CCC[C@]12CC=CCCCC1(CCCC=CCCCOC(=O)N3CC[C@@]4(C3)NC(=O)[C@H](CCCCn3cc(nn3)C[C@@H](C(N)=O)NC(=O)[C@H](Cc3csc5ccccc35)NC(=O)[C@H](Cc3ccsc3)NC4=O)NC(=O)[C@H](Cc3ccccc3)NC(=O)[C@H](C)NC(=O)[C@H](C)NC(=O)[C@H](Cc3cccc(C(=O)O)c3)NC(=O)[C@H](CC(=O)O)NC1=O)NC(=O)[C@H](CC(C)(C)C)NC(=O)[C@H](CC(=O)O)NC2=O` (single isomer, unassigned) [I-19, Ac-PL3-Asp-Npg-B5-Asp-3COOHF-Ala-Ala-Phe-TriAzLys*3-PyrS2-3Thi-BztA-sAla*3-NH2], the values for the IC50 in assay [1] and in assay [2] were 3 to 10 µM and < 50 nM, respectively.

As to `CC(=O)N1CCC[C@]12CC=CCCCC1(CCCC=CCCCOC(=O)N3CC[C@@]4(C3)NC(=O)[C@H](CCCCn3cc(nn3)C[C@@H](C(N)=O)NC(=O)[C@H](Cc3csc5ccccc35)NC(=O)[C@H](Cc3ccccc3C(F)(F)F)NC4=O)NC(=O)[C@H](Cc3ccccc3)NC(=O)[C@H](C)NC(=O)[C@H](C)NC(=O)[C@H](Cc3cccc(C(=O)O)c3)NC(=O)[C@H](CC(=O)O)NC1=O)NC(=O)[C@H](CC(C)(C)C)NC(=O)[C@H](CC(=O)O)NC2=O` (single isomer, unassigned) [I-21, Ac-PL3-Asp-Npg-B5-Asp-3COOHF-Ala-Ala-Phe-TriAzLys*3-PyrS2-2F3MeF-BztA-sAla*3-NH2], the IC50 is 1.5 to 3 µM in assay [1] and < 50 nM in assay [2].
